“And” between values parts separate entries of the source, which are not always exact repeats. Identical values can stand only once. The list shows a part of the results, in another mix than the full data. Results filed as inconclusive are left out. The source made the active and inactive calls. Calls follow the shape of the dose curve; as a rule, active = well fitted activation curve with a large enough effect in the repeat runs; inconclusive = weak or mixed curves; inactive = flat fitted curve, though single readings scatter.
Assay: Caspase-3/7 induction in HepG2 cells by small molecules, qHTS assay (AID 1346978); also: nearly all actives have a fitted effect of over 15% in size
Details: HepG2 caspase-3/7 activation, Caspase-Glo luminescence, 17 h; at 42.5 µM (top of the series)
Source text: National Center for Advancing Translational Sciences [NCATS] NIH Chemical Genomics Center [NCGC] U.S. Environmental Protection Agency [EPA] National Institutes of Environmental Health Sciences [NIEHS] National Toxicology Program [NTP] Assay overview: Apoptosis is a process of programmed cell death and plays a central role in the development of multicellular organisms. It is a highly regulated process and induces cell death by activating caspases, which are the members of cysteine aspartic acid-specific protease (caspase) family. Caspases involved in apoptosis are classified by their mechanism of action as initiator caspases (caspase-2, -8, -9 and -10) and executioner caspases (caspase-3, -6, and -7). Inhibition of apoptosis results in number of cancers, autoimmune diseases, inflammatory diseases and viral infection. To identify small molecule compounds that induce apoptosis, a homogeneous, luminescent Caspase-Glo 3/7 assay was used. Wild type HepG2 cells were used to screen Tox21 libraries for identifying caspase-3/7 activity inducers.
Assay Protocol Summary: HepG2 cells were dispensed at 2,000 per well in 5uL of culture medium into white solid bottom 1536-well plates (Corning Life Sciences, Corning, NY) using a Multidrop Combi (Thermo Scientific, Waltham, MA) dispenser. The assay plates were incubated at 37 C and 5% CO2 for 5hr, and then 23nL of compounds dissolved in DMSO and positive control were transferred using a Pintool station (Wako, San Diego, CA). The assay plates were incubated at 37C and 5% CO2 for 17hr. For caspase-3/7 activity read, 4uL of Caspase-Glo 3/7 reagent (Promega Corporation, Madison, WI) was added to each well of the assay plates using Flying Reagent Dispenser (FRD, Aurora Discovery, San Diego, CA) and incubated the assay plates at room temperature for 30min. The luminescence signal was quantified using a ViewLux plate reader (Perkin Elmer, Shelton, CT).
% is scaled to controls: 0 for no effect and ±100 for the full control effect.

Compound | caspase activation
OCCSCCO | inactive: 1.37%

Same assay, conditions: HepG2 caspase-3/7 activation, Caspase-Glo luminescence, 17 h; at 92.4 µM (top of the series)

Compound | caspase activation
OCCSCCO | inactive: -0.413%

Same assay, conditions: HepG2 caspase-3/7 activation, Caspase-Glo luminescence, 17 h; at 92.4 µM (top of the series) unless noted

Compound | caspase activation
O=[N+]([O-])[O-].[NH4+] | inactive: -0.371% and inactive: -0.35%
COc1ccc([N+](=O)[O-])cc1[N+](=O)[O-] | inactive: 0.922%
O=[N+]([O-])OCC(CO[N+](=O)[O-])(CO[N+](=O)[O-])CO[N+](=O)[O-] | inactive: -0.466%
CCOP(=O)(CC)Oc1ccc([N+](=O)[O-])cc1 (configuration not stated) | inactive: -1.87% [at 42.5 µM]
CC(C)N(CCO)C(C)C | inactive: 1.11%
Cc1cccc([N+](=O)[O-])c1[N+](=O)[O-] | inactive: 5.64% [at 42.5 µM]
CN(C)CCCl | inactive: -1.29%
COP(C)(=O)OC | inactive: -2.04% and inactive: -0.949%
C/C1=C2N=C(/C=C3N=C(/C(C)=C4\[N-][C@@](C)([C@@H]5N=C1[C@](C)(CCC(=O)NC[C@@H](C)OP(=O)([O-])O[C@H]1[C@@H](O)[C@@H](n6cnc7cc(C)c(C)cc76)O[C@@H]1CO)[C@H]5CC(N)=O)[C@@](C)(CC(N)=O)[C@@H]4CCC(N)=O)[C@@](C)(CC(N)=O)[C@@H]\3CCC(N)=O)C(C)(C)[C@@H]/2CCC(N)=O.[C-]#N.[Co+3] | inactive: -0.773% [at 42.5 µM]
Nc1cc([N+](=O)[O-])cc([N+](=O)[O-])c1O | inactive: -7.37%
[NH4+].[O-][Cl+3]([O-])([O-])[O-] | inactive: -0.0303% and inactive: 0.064%
CCN(CC)CCCl | inactive: -0.331%
CC(C)OP(C)(=O)OC(C)C | inactive: -0.512% and inactive: 0.22%
Cc1c([N+](=O)[O-])cccc1[N+](=O)[O-] | inactive: 0.276% and inactive: -0.0184%
CP(=O)(O)OCCC[Si](O)(O)O | inactive: -0.951%
N=C(N)N[N+](=O)[O-] | inactive: 0.43%
Cc1ccc([N+](=O)[O-])c([N+](=O)[O-])c1 | inactive: -3.09% and inactive: 0.131%
O=[N+]([O-])c1cccc([N+](=O)[O-])c1 | inactive: -0.94%
N#CBr | inactive: -1.19%
CCOP(=O)(CC)OCC | inactive: 0.295%
